Experiments:
[1] = target: recombinant wild type human p21^H-ras protein (human) (UniProt P01112)
[2] = target: N-AcMCVFM
[3] = target: N-CholylCVFM
[4] = target: N-Octanoyl-CVFM
[5] = target: N-AcECVFM
[6] = target: N-AcDCVFM
[7] = target: KCVFM
[8] = target: CVIM
[9] = target: N-AcPCVFM
[10] = target: N-AcCCVFM
[11] = target: N-AcKCVFM
[12] = target: N-AcCVFM
[13] = target: N-AcHCVFM
[14] = target: N-AcGCVFM
[15] = target: N-AcCVIM
[16] = target: N-AcCVWM
[17] = target: CVFM
[18] = target: CCVFM
[19] = target: N-AcSCVFM
[20] = target: CVWM

rat brain protein farnesyltransferase (enzyme)
transfer of [3H]farnesyl from [3H]FPP to p21^H-ras; half-maximal substrate concentration [1]: 5 µM | Ratio of [^3 H]Farnesyl Incorporated into Peptide/CVIM (ratio to CVIM) [2]: 2.2 | Ratio of [^3 H]Farnesyl Incorporated into Peptide/CVIM (ratio to CVIM) [3]: 0.85 | Ratio of [^3 H]Farnesyl Incorporated into Peptide/CVIM (ratio to CVIM) [4]: 2.1 | Ratio of [^3 H]Farnesyl Incorporated into Peptide/CVIM (ratio to CVIM) [5]: 1.4 | Ratio of [^3 H]Farnesyl Incorporated into Peptide/CVIM (ratio to CVIM) [6]: 1.3 | Ratio of [^3 H]Farnesyl Incorporated into Peptide/CVIM (ratio to CVIM) [7]: 0.77 | Ratio of [^3 H]Farnesyl Incorporated into Peptide/CVIM (ratio to CVIM) [8]: 1 | Ratio of [^3 H]Farnesyl Incorporated into Peptide/CVIM (ratio to CVIM) [9]: 1.4 | Ratio of [^3 H]Farnesyl Incorporated into Peptide/CVIM (ratio to CVIM) [10]: 1.2 | Ratio of [^3 H]Farnesyl Incorporated into Peptide/CVIM (ratio to CVIM) [11]: 2.8 | Ratio of [^3 H]Farnesyl Incorporated into Peptide/CVIM (ratio to CVIM) [12]: 1.1 | Ratio of [^3 H]Farnesyl Incorporated into Peptide/CVIM (ratio to CVIM) [13]: 0.96 | Ratio of [^3 H]Farnesyl Incorporated into Peptide/CVIM (ratio to CVIM) [14]: 1.9 | Ratio of [^3 H]Farnesyl Incorporated into Peptide/CVIM (ratio to CVIM) [15]: 1.8 | Ratio of [^3 H]Farnesyl Incorporated into Peptide/CVIM (ratio to CVIM) [16]: 1.2 | Ratio of [^3 H]Farnesyl Incorporated into Peptide/CVIM (ratio to CVIM) [17]: 0 | Ratio of [^3 H]Farnesyl Incorporated into Peptide/CVIM (ratio to CVIM) [18]: 1.5 | Ratio of [^3 H]Farnesyl Incorporated into Peptide/CVIM (ratio to CVIM) [19]: 2 | Ratio of [^3 H]Farnesyl Incorporated into Peptide/CVIM (ratio to CVIM) [20]: 0
